Experimental findings from article PMC5970969 (Nature cell biology, 2018) are described below.

The target of this test is recombinant PAX5 protein (human, UniProt Q02548). Description: pull-down.

B1: recombinant OCT4-GST fusion protein (natural protein, human, UniProt Q01860 1-360, looked up)
chain: MAGHLASDFAFSPPPGGGGDGPGGPEPGWVDPRTWLSFQGPPGGPGIGPGVGPGSEVWGIPPCPPPYEFCGGMAYCGPQVGVGLVPQGGLETSQPEGEAGVGVESNSDGASPEPCTVTPGAVKLEKEKLEQNPEESQDIKALQKELEQFAKLLKQKRITLGYTQADVGLTLGVLFGKVFSQTTICRFEALQLSFKNMCKLRPLLQKWVEEADNNENLQEICKAETLVQARKRKRTSIENRVRGNLENLFLQCPKPTLQQISHIAQQLGLEKDVVRVWFCNRRQKGKRSSSDYAQREDFEAAGSPFSGGPVSFPLAPGPHFGTPGYGSPHFTALYSSVPFPEGEAFPPVSVTTLGSPMHSN
As to B1, the binding result was “binds”.
